Test results taken from patent US9273046B2, “Fused tricyclic compounds as Raf kinase inhibitors” (BeiGene, LTD., priority 2011, dated 2016).

Protein sequences, listed by entry. Tags and fused reporters are not part of them.
UniProt P15056, whole entry V600E: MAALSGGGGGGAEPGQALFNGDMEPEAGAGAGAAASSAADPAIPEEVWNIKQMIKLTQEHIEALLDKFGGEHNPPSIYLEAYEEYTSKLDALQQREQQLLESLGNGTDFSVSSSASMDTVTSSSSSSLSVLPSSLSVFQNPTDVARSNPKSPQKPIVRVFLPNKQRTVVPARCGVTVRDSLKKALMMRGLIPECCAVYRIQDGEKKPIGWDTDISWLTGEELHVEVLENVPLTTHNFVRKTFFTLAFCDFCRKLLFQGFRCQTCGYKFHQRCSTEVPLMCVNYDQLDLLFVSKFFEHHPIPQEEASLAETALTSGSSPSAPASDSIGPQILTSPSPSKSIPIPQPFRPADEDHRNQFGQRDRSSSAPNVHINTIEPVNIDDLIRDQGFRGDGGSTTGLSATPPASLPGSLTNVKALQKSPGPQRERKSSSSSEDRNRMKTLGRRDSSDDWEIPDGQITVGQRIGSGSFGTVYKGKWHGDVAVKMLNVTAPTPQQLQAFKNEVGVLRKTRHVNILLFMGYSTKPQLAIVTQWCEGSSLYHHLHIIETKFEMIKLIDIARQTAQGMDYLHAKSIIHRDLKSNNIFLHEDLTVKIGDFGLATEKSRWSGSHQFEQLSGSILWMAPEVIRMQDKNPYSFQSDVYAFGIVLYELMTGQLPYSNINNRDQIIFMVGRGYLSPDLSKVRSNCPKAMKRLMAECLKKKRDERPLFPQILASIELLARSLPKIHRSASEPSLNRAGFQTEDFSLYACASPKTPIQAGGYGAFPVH
UniProt P04049, whole entry Y340D/Y341D: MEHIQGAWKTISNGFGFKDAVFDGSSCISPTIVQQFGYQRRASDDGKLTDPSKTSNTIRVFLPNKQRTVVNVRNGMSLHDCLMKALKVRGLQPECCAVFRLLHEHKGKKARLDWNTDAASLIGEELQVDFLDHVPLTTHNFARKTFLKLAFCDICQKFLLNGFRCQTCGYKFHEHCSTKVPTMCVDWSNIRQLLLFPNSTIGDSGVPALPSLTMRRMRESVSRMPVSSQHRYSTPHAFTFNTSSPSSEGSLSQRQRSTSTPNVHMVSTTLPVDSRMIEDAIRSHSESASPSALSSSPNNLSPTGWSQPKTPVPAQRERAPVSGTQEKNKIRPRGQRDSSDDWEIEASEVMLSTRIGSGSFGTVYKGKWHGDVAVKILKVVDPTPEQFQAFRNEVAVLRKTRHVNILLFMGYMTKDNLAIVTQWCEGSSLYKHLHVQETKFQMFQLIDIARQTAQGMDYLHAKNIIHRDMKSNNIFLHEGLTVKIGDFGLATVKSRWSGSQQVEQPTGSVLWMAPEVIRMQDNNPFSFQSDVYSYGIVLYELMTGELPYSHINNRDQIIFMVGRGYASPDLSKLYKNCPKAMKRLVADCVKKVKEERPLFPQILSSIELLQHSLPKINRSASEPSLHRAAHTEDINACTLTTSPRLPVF

Experiments:
B-Raf (V600E) = B-Raf (V600E) (Homo sapiens (Human), UniProt P15056, V600E); assay: Raf IC50 assay, time-resolved fluorescence energy transfer (TR-FRET), B-Raf; assay type: biochemical; details: 0.0625 nM B-Raf, 0.1 mM ATP, GST-tagged MEK1 substrate, 60 min preincubation
Protocol: The enzyme was incubated with the compounds at room temperature for 60 minutes and the reactions were initiated by the addition of ATP and GST-MEK1. […] Plates were sealed and incubated at room temperature for 2 hours, and then the TR-FRET signals were read on BMG PHERAstar FS instrument. The IC50 for each compound was calculated by non linear regression by Graphpad Prism software.

C-Raf (Y340D/Y341D) = C-Raf (Y340D/Y341D) (Homo sapiens (Human), UniProt P04049, Y340D/Y341D); assay: Raf IC50 assay, time-resolved fluorescence energy transfer (TR-FRET), C-Raf; assay type: biochemical; details: 0.5 nM C-Raf, 0.1 mM ATP, GST-tagged MEK1 substrate, 60 min preincubation
Protocol: The assay was carried out in reactions (10 μL) containing 0.0625 nM B-Raf or 0.5 nM C-Raf, 25 mM Tris pH7.4, 10 mM MgCl2, 0.5 mM EGTA, 0.5 mM […], 5 mM beta-glycerophosphate, 0.01% Triton X-100, 2.5 mM DTT, 0.1% BSA, 0.1 mM ATP, 13.7 nM GST-tagged MEK1 (Full-length protein with K97R mutation, recombinant protein purified from bacterial expression system) and 0-5 μM compounds disclosed herein (final concentration of 1% DMSO). The enzyme was incubated with the compounds at room temperature for 60 minutes and the reactions were initiated by the addition of ATP and GST-MEK1. After incubating at room temperature for 60 minutes, an equal volume of stop buffer containing 25 mM Tris pH7.4, 400 mM KF, 50 mM EDTA, 0.01% BSA, 0.01% Triton X-100, 1 test of Eu3+ Cryptate-conjugated rabbit polyclonal antibody anti-Phospho MEK1/2 (Ser217/221) and 1 test of d2-conjugated mouse monoclonal antibody anti-glutathione S-transferase was added to stop the reactions. Plates were sealed and incubated at room temperature for 2 hours, and then the TR-FRET signals were read on BMG PHERAstar FS instrument. The IC50 for each compound was calculated by non linear regression by Graphpad Prism software.

Question: `Cc1cc2nc(C3C4Oc5cc(Cl)c(Oc6ccnc7c6CCC(=O)N7)cc5C43)[nH]c2cc1F` (racemic) [Compound 2.37, (±)-exo-5-((4-chloro-1-(6-fluoro-5-methyl-1H-benzo[d]imidazol-2-yl)-1a,6b-dihydro-1H-cyclopropa[b]benzofuran-5-yl)oxy)-3,4-dihydro-1,8-naphthyridin-2(1H)-one] was tested. Which IC50 (B-Raf (V600E)) did it give?
Answer: The IC50 was 173 nM.

Question: How did the IC50 (B-Raf (V600E)) turn out when `O=C1CCc2c(Oc3ccc4c(c3)[C@@H]3[C@H](O4)[C@H]3c3nc4cc(Cl)c(Cl)cc4[nH]3)ccnc2N1` [Compound 2.3a] was run?
Answer: The IC50 was 11 nM.

Question: Which IC50 (B-Raf (V600E)) does the source give for `Cc1cc(Oc2ccnc3c2CCC(=O)N3)cc2c1OC1C(c3nc4ccc(C(F)(F)F)cc4[nH]3)C21` (racemic) [Compound 2.35, (±)-exo-5-((3-methyl-1-(6-(trifluoromethyl)-1H-benzo[d]imidazol-2-yl)-1a,6b-dihydro-1H-cyclopropa[b]benzofuran-5-yl)oxy)-3,4-dihydro-1,8-naphthyridin-2(1H)-one] here?
Answer: The IC50 was 61 nM.

Question: With `O=C1CCc2c(Oc3ccc4c(c3)[C@H]3[C@@H](O4)[C@@H]3c3nc4cc(Cl)c(Cl)cc4[nH]3)ccnc2N1` [Compound 2.3b] as the compound, how does the IC50 (B-Raf (V600E)) read?
Answer: Its IC50 is 32 nM.

Question: With `FC(F)(F)c1ccc2nc(C3C4Oc5ccc(Oc6ncnc7[nH]cnc67)cc5C43)[nH]c2c1` (racemic) [Compound 3.5, (±)-exo-6-((1-(6-(trifluoromethyl)-1H-benzo[d]imidazol-2-yl)-1a,6b-dihydro-1H-cyclopropa[b]benzofuran-5-yl)oxy)-9H-purine] as the compound, how does the IC50 (B-Raf (V600E)) read?
Answer: Its IC50 is 56 nM.

Question: `Cc1cc2[nH]c([C@@H]3[C@H]4Oc5ccc(Oc6ccnc7c6CCC(=O)N7)cc5[C@H]43)nc2cc1F` [Compound 2.4a] was tested. Which IC50 (B-Raf (V600E)) did it give?
Answer: Its IC50 is 3.4 nM.

Question: How did the IC50 (B-Raf (V600E)) turn out when `O=C1CCc2c(Oc3ccc4c(c3)[C@@H]3[C@H](O4)[C@H]3c3nc4cc(Cl)c(C(F)(F)F)cc4[nH]3)ccnc2N1` [Compound 2.5a] was run?
Answer: The IC50 was 126 nM.

Question: Which IC50 (B-Raf (V600E)) does the source give for `CNC(=O)c1cc(Oc2ccc3c(c2)C2C(O3)C2c2nc3ccc(C(F)(F)F)cc3[nH]2)ccn1` (racemic) [Compound 3.1, (±)-exo-N-methyl-4-((1-(6-(trifluoromethyl)-1H-benzo[d]imidazol-2-yl)-1a,6b-dihydro-1H-cyclopropa[b]benzofuran-5-yl)oxy)picolinamide] here?
Answer: The IC50 was 56 nM.

Question: `O=C1CCc2c(Oc3ccc4c(c3)[C@H]3[C@@H](O4)[C@@H]3c3nc4cc(Cl)c(C(F)(F)F)cc4[nH]3)ccnc2N1` [Compound 2.5b] was tested. Which IC50 (B-Raf (V600E)) did it give?
Answer: Its IC50 is 11 nM.

Question: `O=C1CCc2c(Oc3ccc4c(c3)C3C(O4)C3c3nc(C(F)(F)F)c[nH]3)ccnc2N1` (racemic) [Compound 2.33, (±)-exo-5-((1-(4-(trifluoromethyl)-1H-imidazol-2-yl)-1a,6b-dihydro-1H-cyclopropa[b]benzofuran-5-yl)oxy)-3,4-dihydro-1,8-naphthyridin-2(1H)-one] was tested. Which IC50 (B-Raf (V600E)) did it give?
Answer: Its IC50 is 6 nM.

Question: `Cc1cc2[nH]c([C@H]3[C@@H]4Oc5ccc(Oc6ccnc7c6CCC(=O)N7)cc5[C@@H]43)nc2cc1F` [Compound 2.4b] was tested. Which IC50 (B-Raf (V600E)) did it give?
Answer: Its IC50 is 21 nM.

Question: What about the IC50 (C-Raf (Y340D/Y341D)) of the same compound?
Answer: Its IC50 is 2.5 nM.

Question: `FC(F)(F)c1ccc2nc(C3C4Oc5ccc(Oc6ccncn6)cc5C43)[nH]c2c1` (racemic) [Compound 3.2, (±)-exo-2-(5-(pyrimidin-4-yloxy)-1a,6b-dihydro-1H-cyclopropa[b]benzofuran-1-yl)-6-(trifluoromethyl)-1H-benzo[d]imidazole] was tested. Which IC50 (B-Raf (V600E)) did it give?
Answer: Its IC50 is 569 nM.
